This assay deals with Cannabinoid receptor 2 (Homo sapiens, UniProt P34972). Nature of the assay: Displacement of [3H]CP-55940 from human recombinant CB2 receptor.

Protein sequences, listed by entry. Tags and fused reporters are not part of them.
UniProt P34972, whole entry: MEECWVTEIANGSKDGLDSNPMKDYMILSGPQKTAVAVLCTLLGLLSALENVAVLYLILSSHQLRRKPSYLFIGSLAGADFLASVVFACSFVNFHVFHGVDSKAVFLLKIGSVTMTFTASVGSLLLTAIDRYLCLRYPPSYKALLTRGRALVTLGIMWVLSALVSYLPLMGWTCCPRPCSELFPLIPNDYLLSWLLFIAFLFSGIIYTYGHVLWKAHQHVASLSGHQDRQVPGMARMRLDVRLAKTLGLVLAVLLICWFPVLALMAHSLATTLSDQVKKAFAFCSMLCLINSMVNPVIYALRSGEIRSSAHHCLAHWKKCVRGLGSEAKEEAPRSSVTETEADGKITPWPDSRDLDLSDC

For orientation: Ki means the dissociation constant of the complex between target and ligand, obtained from inhibition or displacement. `CCCCC/C=C\C/C=C\C/C=C\C/C=C\CCCC(=O)NCCO` [ANANDAMIDE]: the Ki was 180 nM.

Values taken from ChEMBL document CHEMBL1148545, “New metabolically stable fatty acid amide ligands of cannabinoid receptors: Synthesis and receptor affinity studies” (Bioorg Med Chem Lett, 2006).
